Measured values taken from patent US11780821B2, “Inhibitors of fibroblast activation protein” (Praxis Biotech LLC, priority 2017, dated 2023).

Protein sequences, listed by entry. Tags and fused reporters are not part of them. Residues count along the entry.
UniProt Q12884, whole entry: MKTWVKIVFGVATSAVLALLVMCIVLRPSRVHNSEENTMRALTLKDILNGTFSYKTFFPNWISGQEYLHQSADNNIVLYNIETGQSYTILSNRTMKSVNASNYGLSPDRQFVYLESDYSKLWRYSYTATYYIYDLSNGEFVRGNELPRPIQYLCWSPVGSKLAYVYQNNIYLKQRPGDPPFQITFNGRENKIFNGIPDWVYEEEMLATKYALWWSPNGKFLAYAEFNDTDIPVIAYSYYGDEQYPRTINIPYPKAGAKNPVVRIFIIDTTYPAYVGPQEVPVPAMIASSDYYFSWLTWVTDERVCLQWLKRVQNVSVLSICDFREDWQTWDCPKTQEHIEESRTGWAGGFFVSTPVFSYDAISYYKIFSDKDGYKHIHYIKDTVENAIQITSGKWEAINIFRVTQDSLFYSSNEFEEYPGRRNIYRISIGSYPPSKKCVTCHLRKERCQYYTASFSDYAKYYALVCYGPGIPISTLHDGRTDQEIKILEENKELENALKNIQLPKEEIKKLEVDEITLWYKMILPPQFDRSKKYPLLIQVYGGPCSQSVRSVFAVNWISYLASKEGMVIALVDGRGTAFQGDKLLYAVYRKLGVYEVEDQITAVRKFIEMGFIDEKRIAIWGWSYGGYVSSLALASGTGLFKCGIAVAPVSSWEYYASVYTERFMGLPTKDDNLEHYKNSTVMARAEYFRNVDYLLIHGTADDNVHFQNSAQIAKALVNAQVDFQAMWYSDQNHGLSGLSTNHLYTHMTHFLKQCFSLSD
UniProt Q12884, 24-760 limits assumed: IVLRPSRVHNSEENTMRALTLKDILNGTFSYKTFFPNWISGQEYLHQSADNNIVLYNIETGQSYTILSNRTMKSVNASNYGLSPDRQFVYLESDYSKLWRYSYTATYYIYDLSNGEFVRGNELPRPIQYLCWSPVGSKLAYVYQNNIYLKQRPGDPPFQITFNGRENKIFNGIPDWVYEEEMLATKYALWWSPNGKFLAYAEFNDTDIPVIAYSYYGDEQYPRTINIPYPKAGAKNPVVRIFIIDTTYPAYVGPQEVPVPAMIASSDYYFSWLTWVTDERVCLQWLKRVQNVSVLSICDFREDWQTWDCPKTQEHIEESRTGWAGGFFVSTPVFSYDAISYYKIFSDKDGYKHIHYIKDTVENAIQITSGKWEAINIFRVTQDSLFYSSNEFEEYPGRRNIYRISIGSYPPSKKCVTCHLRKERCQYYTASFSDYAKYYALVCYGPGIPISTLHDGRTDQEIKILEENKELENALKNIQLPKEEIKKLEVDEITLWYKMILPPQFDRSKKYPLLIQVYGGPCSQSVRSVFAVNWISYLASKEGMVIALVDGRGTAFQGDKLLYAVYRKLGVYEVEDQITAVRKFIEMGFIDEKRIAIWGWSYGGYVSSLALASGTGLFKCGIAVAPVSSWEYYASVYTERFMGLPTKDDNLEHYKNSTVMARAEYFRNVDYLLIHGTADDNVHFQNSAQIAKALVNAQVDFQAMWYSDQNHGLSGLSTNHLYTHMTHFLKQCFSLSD
UniProt Q86TI2, whole entry: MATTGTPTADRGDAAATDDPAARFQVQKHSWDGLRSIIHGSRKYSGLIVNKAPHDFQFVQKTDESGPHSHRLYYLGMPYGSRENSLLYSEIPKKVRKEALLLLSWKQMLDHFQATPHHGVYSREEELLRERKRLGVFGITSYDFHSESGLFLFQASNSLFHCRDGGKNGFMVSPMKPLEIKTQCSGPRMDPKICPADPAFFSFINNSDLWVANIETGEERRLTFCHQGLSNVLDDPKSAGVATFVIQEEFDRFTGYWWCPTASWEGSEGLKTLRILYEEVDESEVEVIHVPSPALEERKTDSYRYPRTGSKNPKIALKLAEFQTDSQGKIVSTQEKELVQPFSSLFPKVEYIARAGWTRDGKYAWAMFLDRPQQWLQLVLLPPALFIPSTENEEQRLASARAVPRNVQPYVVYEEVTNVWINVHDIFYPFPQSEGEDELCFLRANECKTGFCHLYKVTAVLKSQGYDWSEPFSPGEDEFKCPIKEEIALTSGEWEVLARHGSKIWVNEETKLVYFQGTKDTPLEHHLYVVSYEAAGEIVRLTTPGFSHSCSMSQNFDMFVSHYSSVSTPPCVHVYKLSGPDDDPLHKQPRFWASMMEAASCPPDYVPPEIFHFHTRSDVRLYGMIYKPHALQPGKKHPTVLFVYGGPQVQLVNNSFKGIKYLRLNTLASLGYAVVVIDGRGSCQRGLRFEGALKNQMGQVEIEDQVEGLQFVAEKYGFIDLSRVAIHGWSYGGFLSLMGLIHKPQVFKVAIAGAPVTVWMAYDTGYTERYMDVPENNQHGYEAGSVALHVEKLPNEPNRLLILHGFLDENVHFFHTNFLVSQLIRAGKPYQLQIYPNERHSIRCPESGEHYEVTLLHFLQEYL

Legend:
[1] = target: circulating FAPα from human plasma (Homo sapiens, UniProt Q12884); assay: Ex vivo inhibition of circulating FAPα activity from human plasma; details: read-out: FAPα activity in human plasma (PRXS-AMC) IC50, PRXS-AMC substrate
[2] = target: recombinant human DPP9 (rhDPP9) (Homo sapiens, UniProt Q86TI2); assay: DPP9 enzymatic activity assay; type: biochemical; details: read-out: rhDPP9 (IC50); H-Gly-Pro-AMC substrate
[3] = target: recombinant human FAPα (rhFAPα) (Homo sapiens, UniProt Q12884); assay: FAPα enzymatic exopeptidase (dipeptidase) activity assay; type: biochemical; details: for rhFAPα (% exo inh @ 1 μM): 1 μM test compound, Z-Gly-Pro-AMC substrate; for IC50: read-out: rhFAPα (exo IC50), exopeptidase

| IC50 [1] | IC50 [2] | IC50 ([3]; Table 2, Z-Gly-Pro-AMC) | IC50 ([3]; Table 3) | Structure (SMILES) | rhFAPα (% exo inh @ 1 μM) [3] |
| --- | --- | --- | --- | --- | --- |
| < 1 µM | 1 to 10 µM | < 1 µM | < 1 µM | CC(c1ccccc1)c1cnccc1C(=O)NCC(=O)N1CC(F)(F)C[C@H]1C#N (single isomer, unassigned) [First eluting isomer of example 74] | +++ (+++ refers to > 50% inhibition at 1 μM test compound) |
|  | 1 to 10 µM | 1 to 10 µM | 1 to 10 µM | CC(c1ccccc1)c1cnccc1C(=O)NCC(=O)N1CC(F)(F)C[C@H]1C#N (single isomer, unassigned) [Second eluting isomer of example 74] | +++ (+++ refers to > 50% inhibition at 1 μM test compound) |

Read-outs that look alike come from different tables or passages of the source.
